{"source": "paper PMC6259150", "origin": "cited, not measured here", "target": "… peptide (synthetic construct)", "data": [{"substance": "concanavalin A (from UniProt P02866)", "values": [{"measurement": "Kd", "value": 46, "unit": "µM"}]}]}
